Measurements as given in patent US20080038267A1, “Treatment Of Cancer” (NEUTEC PHARMA LIMITED, priority 2004, published 2008).

Assays:
MCF7 cells = assay: Cell Titer Blue viability, single drug, MCF7 cells; assay type: cell-based, human; details: Herceptin alone
Experimental: Viable cells reduce resazurin to resorufin (pink). Cell growth was evaluated as described above. […] The cell lines were split and cells counted. […] The next day, the cells were observed under phase contrast microscopy to ensure they had adhered to the plates and the supernatant medium removed by aspiration. […] Human breast adenocarcinoma cell line MCF7, expressing both wild type and variant oestrogen receptors as well a progesterone receptor, was obtained from ECACC (ECACC number—86012803).

HS578T cells = assay: Cell Titer Blue viability, single drug, HS578T cells; assay type: cell-based, human; details: 48 hour incubation
Experimental: Viable cells reduce resazurin to resorufin (pink). Cell growth was evaluated as described above. […] The cell lines were split and cells counted. […] The next day, the cells were observed under phase contrast microscopy to ensure they had adhered to the plates and the supernatant medium removed by aspiration. […] Experiments were also performed with HS578T cells using the above methodologies, and results are given below. HS578T—ECACC number 86082104, Human breast carcinoma, Epithelial. Tumorigenic in immunosuppressed mice and form colonies in semisolid medium. Oestrogen receptor negative.

Question: What does the source list for “Herceptin: monoclonal antibody used for the treatment of HER2 protein overexpressing metastatic breast cancer”?
Answer: activity of the single agent (MCF7 cells): no detectable activity; IC50 (HS578T cells): > 200 µg/mL
